{"source": "paper PMC12240781", "about": "(Frontiers in Pharmacology, 2025)", "origin": "cited, not measured here", "conditions": "ranging from undetectable; ref Chan et al., 1990; cited from earlier work", "data": [{"substance": "6-thioguanine nucleotides [6-TGNs]", "values": [{"measurement": "Levels of 6-TGNs", "value": "≤ 413 pmol per 8 × 10^8 red blood cells"}]}]}
